Only a part is listed here, and it is no random draw. Inconclusive results are not listed. Activity calls are given as the source filed them. Unless noted, the call rests on the fitted dose curve.
How the values were obtained:
[1] = qHTS assay to identify small molecule agonists of the farnesoid-X-receptor (FXR) signaling pathway - cell viability counter screen (AID 743218; active means well fitted cell-killing curve with a large enough effect in the repeat runs; further: nearly all actives have a fitted effect of over 45% in size); details: FXR-bla HEK293T viability, CellTiter-Glo luminescence, 16 h; at 81.1 µM (top of the series)
In short: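 FXR-UAS-bla HEK 293T cells, plated 5 h at 37 C, were exposed to compounds for 16 h at 37 C. CellTiter-Glo was then added to the same wells as the bla readout; luminescence read after 30 min at room temperature.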

Amino acid sequences for entries named in this document (tags omitted).
UniProt P11473, whole entry: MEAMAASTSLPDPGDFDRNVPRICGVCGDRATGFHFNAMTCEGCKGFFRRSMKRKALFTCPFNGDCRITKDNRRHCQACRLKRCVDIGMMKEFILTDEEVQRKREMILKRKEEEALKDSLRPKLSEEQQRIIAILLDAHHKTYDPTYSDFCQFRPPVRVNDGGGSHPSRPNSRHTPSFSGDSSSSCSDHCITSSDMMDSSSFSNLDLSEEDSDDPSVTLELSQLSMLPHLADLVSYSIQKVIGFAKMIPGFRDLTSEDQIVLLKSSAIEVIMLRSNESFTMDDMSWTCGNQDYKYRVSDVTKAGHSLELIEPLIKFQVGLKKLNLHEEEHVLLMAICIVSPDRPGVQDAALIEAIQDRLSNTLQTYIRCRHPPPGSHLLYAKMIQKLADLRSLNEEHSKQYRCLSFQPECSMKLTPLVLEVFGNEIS

[2] = qHTS assay to identify small molecule antagonists of the farnesoid-X-receptor (FXR) signaling pathway - cell viability counter screen (AID 743221; active means well fitted cell-killing curve with a large enough effect in the repeat runs, not every such curve was filed as active; further: nearly all actives have a fitted effect of over 50% in size); details: FXR-bla HEK293T viability, CellTiter-Glo luminescence, 16 h; at 81.1 µM (top of the series)
In short: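 In GeneBLAzer FXR-UAS-bla HEK 293T cells stimulated with 50 uM chenodeoxycholic acid (final), compounds acted for 16 h at 37 C. Viability was assessed afterwards by CellTiter-Glo luminescence.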

[3] = biological target: Vitamin D3 receptor (Homo sapiens) (UniProt P11473); test: qHTS assay to identify small molecule agonists of the vitamin D receptor (VDR) signaling pathway (AID 743222); details: HEK293T VDR-UAS-bla, beta-lactamase FRET ratio, 16 h; at 81.1 µM (top of the series)
In short: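 VDR-bla cells were plated 4 h at 37C/5% CO2, then exposed to compounds in DMSO for 16 h. After LiveBLAzer B/G FRET substrate addition and 2 h at room temperature, beta-lactamase reporter fluorescence was read.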

[4] = biological target: Vitamin D3 receptor (Homo sapiens) (UniProt P11473); test: qHTS assay to identify small molecule antagonists of the vitamin D receptor (VDR) signaling pathway (AID 743223; active means well fitted inhibition curve with a large enough effect in the signal ratio in the repeat runs, not every such curve was filed as active; the % refers to the signal ratio); details: VDR-UAS-bla HEK293T, beta-lactamase FRET ratio, 16 h; at 78.8 µM (top of the series)
In short: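 Agonist 1alpha,25-dihydroxyvitamin D3 (3 nM in well) was added with each compound to VDR-bla cells preincubated 4 h. Cells stood 16 h at 37C, then FRET substrate 2 h at room temperature; fluorescence intensity recorded.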

[5] = qHTS assay to identify small molecule agonists of the NFkB signaling pathway - cell viability counter screen (AID 1159515); details: NFkB-bla ME-180 viability, CellTiter-Glo luminescence, 5 h; at 78.8 µM (top of the series); further: nearly all actives have a fitted effect of over 55% in size
In short: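 NFkB-bla ME-180 cells, 2,000/well, were plated overnight at 37 C, 5% CO2, then exposed to compounds in DMSO for 5 hr. After the bla FRET read, CellTiter-Glo was added to the same wells; luminescence was read after 30 min at room temperature.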

[6] = qHTS assay to identify small molecule agonists of the endoplasmic reticulum stress response signaling pathway (AID 1159516; active means well fitted activation curve with a large enough effect in the signal ratio in the repeat runs, not every such curve was filed as active; the % refers to the signal ratio); details: ESRE-bla HeLa, ER stress beta-lactamase reporter, 5 h; at 78.8 µM (top of the series)
In short: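 CellSensor ESRE-bla HeLa cells, carrying a beta-lactamase reporter driven by the ER stress response element, were plated overnight and exposed to compounds for 5 hr at 37 C. Reporter activity was read as FRET substrate fluorescence after 2 hr at room temperature.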

[7] = qHTS assay to identify small molecule agonists of the endoplasmic reticulum stress response signaling pathway - cell viability counter screen (AID 1159517); details: ESRE-bla HeLa viability, CellTiter-Glo luminescence, 5 h; at 78.8 µM (top of the series); further: nearly all actives have a fitted effect of over 50% in size
In short: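 CellTiter-Glo was added to wells already read for beta-lactamase FRET, and luminescence was recorded 30 min later. Cells: ESRE-bla HeLa, 1,500 per well, compound exposure 5 hr at 37 C.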

[8] = qHTS assay to identify small molecule agonists of the vitamin D receptor (VDR) signaling pathway - cell viability counter screen (AID 743224; active means well fitted cell-killing curve with a large enough effect in the repeat runs; further: nearly all actives have a fitted effect of over 50% in size); details: VDR-bla HEK293T viability, CellTiter-Glo luminescence, 16 h; at 81.1 µM (top of the series)
In short: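 VDR-bla cells were preincubated 4 h at 37C/5% CO2, then exposed to compounds for 16 h. After the 2 h room-temperature bla FRET read, CellTiter-Glo was added to the same wells and luminescence read after 30 min.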

[9] = qHTS assay to identify small molecule antagonists of the vitamin D receptor (VDR) signaling pathway - cell viability counter screen (AID 743225; active means well fitted cell-killing curve with a large enough effect in the repeat runs; further: nearly all actives have a fitted effect of over 50% in size); details: VDR-bla HEK293T viability, CellTiter-Glo luminescence, 16 h; at 78.8 µM (top of the series)
In short: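 Luminescent cell viability (CellTiter-Glo) in VDR-bla HEK 293T cells after 16 h compound exposure at 37C in the presence of 3 nM final 1-alpha,25-dihydroxy vitamin D3.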

[10] = qHTS assay to identify small molecule agonists of the NFkB signaling pathway (AID 1159509; active means well fitted curve in the direction sought with a large enough effect in the signal ratio in the repeat runs, not every such curve was filed as active; the % refers to the signal ratio); details: NFkB-bla ME-180 cells, beta-lactamase FRET ratio, 5 h; at 78.8 µM (top of the series)
In short: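 ME-180 NFkB-bla, 2,000 cells/well, overnight plating; cpd pinned in DMSO, 5 h 37 C; B/G FRET substrate 1.5 h RT; ex 405, em 460/530 nm.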
On the % scale 0 is the no-effect control and ±100 the full control effect.

O=[N+]([O-])c1ccccc1[N+](=O)[O-]
inactive: viability change, negative = cytotoxic [1] -12.1% | activity change, negative = cytotoxicity [2] -4.59% | activation [3] -16.6% | activity change, negative = inhibition [4] -17.1% | activity, negative = cytotoxic [5] 16.9% | activation [6] -5.17% | activity change, negative = cytotoxicity [7] -21%

ClCCOP(OCCCl)OCCCl
inactive: viability change, negative = cytotoxic [1] 31.7% | activity change, negative = cytotoxicity [2] -1.28% | activation [3] 6.29% | activity change, negative = inhibition [4] 23.8% | activity change, negative = cytotoxicity [8] 2.09% | viability change, negative = cytotoxic [9] -0.376% | activation [10] -0.0361% | activity, negative = cytotoxic [5] 12.6% | activity change, negative = cytotoxicity [7] 7.42%

From PubChem BioAssay (Tox21)
